## scFv variants of Ab-14 (heavy chain) against a SARS-CoV-2 spike peptide

From the AlphaSeq antibody data of Li et al. 2023 (doi:10.1038/s41467-023-39022-2), copy in the FLAb collection.

Target: peptide PDVDLGDISGINAS, taken from heptad repeat 2 (HR2) of SARS-CoV-2 spike.

Ab-14 is the parent antibody, in scFv form: VH, then three GGGGS repeats, then VL. The light chain is unchanged in all variants.
VH: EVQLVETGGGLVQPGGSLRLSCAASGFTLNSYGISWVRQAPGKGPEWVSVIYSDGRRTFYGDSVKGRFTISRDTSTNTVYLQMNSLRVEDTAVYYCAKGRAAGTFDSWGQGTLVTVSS
VL: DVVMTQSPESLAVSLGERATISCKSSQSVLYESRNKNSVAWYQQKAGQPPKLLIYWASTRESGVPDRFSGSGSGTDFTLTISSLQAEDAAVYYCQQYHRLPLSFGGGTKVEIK

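The parent was found by panning a naive human phage display library on the peptide. Designed CDR sequences, proposed from the first random library and measured here. Their group label is 14H_En_Gen (En: ensemble of fine-tuned language models; Gen: genetic algorithm). Affinity was read by AlphaSeq, a pooled yeast mating assay with surface-displayed partners. The frequency of each diploid, read from paired DNA barcodes, reflects how well the two displayed proteins bind. Each replicate has its own calibration line, from reference interactions of the BCL2 family. Each pool was mated in six replicate cultures.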

The parent's heavy chain CDRs are GFTLNSYGIS, VIYSDGRRTFYGDSVK, GRAAGTFDS; each variant's own CDRs replace them letter for letter.
Affinities are written as log10 Kd with Kd in nM; a lower number is a better binder.
The mean shown is taken over the replicates in which the pair was detected.
"nd" means that the variant was in the library but no mating with the target was seen in that replicate; the authors take this as a sign of poor binding, and no number exists.

| CDR-H1 | CDR-H2 | CDR-H3 | log10 Kd, replicates | mean, log10 nM | control signals |
|---|---|---|---|---|---|
| GFDLNEYGIS | VIYADGRRTAYSDSVK | GENAGTFDV | -0.09 / -0.15 / -0.46 / -0.19 / -0.14 / -0.38 | -0.23 | 0 of 18 |
| GFDLDEYGIS | VIYADGQRTAYTDSVK | GENAGTFDI | -0.29 / 0.21 / -0.38 / -0.59 / -0.26 / 0.05 | -0.21 | 1 of 18 (1.60) |
| GFDLNEYGIS | VIYADGVRTAYSDSVK | GENAGTFDQ | 0.10 / -0.18 / -0.47 / -0.43 / -0.50 / -0.10 | -0.26 | 0 of 18 |
| GFDLEDYGIS | VIYADGVRTAYADSVK | GEVAGTFDV | 0.20 / 0.26 / -0.04 / 0.58 / 0.12 / 0.78 | 0.32 | 0 of 18 |
| GFDLNEYGIS | VIYADGMRTAYADDVK | GETAGTFDQ | 0.61 / 1.17 / -0.55 / -0.26 / 0.42 / 0.27 | 0.28 | 0 of 18 |
| GFDLDEYGIS | VIYADGMRTAYADSVK | GENAGTFDM | 1.80 / 2.10 / 1.99 / 2.18 / 1.98 / 1.10 | 1.86 | 1 of 18 (2.28) |
| GFDLNEYGIS | VIYADGKRTAYSDNVK | GEVAGTFDV | -0.32 / -0.45 / -0.59 / -0.74 / -0.70 / -0.62 | -0.57 | 0 of 18 |
| GFDLDEYGIS | VIYADGMRTFYSDSVK | GENAGTFDV | -0.07 / -0.46 / -0.52 / -0.36 / -0.22 / -0.23 | -0.31 | 0 of 18 |
| GFDLNEYGIS | VIYADGRRTAYIDSVK | GNVAGTFDV | 0.17 / -0.23 / -0.26 / -0.70 / -0.12 / 0.38 | -0.13 | 0 of 18 |
| GFDLNEYGIS | VIYADGRRTAYADDVK | GENAGTFDV | nd / nd / nd / nd / nd / nd | nd | 0 of 18 |
| GFDLNEYGIS | VIYADGMRTVYADSVK | GEVAGTFDT | 0.27 / -0.25 / -0.18 / 0.20 / 0.05 / 0.52 | 0.10 | 0 of 18 |
| GFDLEEYGIS | VIYADGKRTAYADSVK | GNVAGTFDL | 0.65 / -0.36 / 0.06 / -0.62 / -0.49 / 0.03 | -0.12 | 0 of 18 |
| GFDLDEYGIS | VIYADGQRTAYADDVK | GNQAGTFDV | 0.31 / -0.32 / 0.35 / -0.67 / -0.58 / 0.26 | -0.11 | 0 of 18 |
| GFDLDEYGIS | VIYADGSRTAYADSVK | GNQAGTFDV | -0.61 / -0.54 / -0.68 / -0.49 / -0.78 / -0.69 | -0.63 | 0 of 18 |
| GFDLNEYGIS | VIYADGQRTAYADSVK | GENAGTFDQ | -0.15 / 0.16 / -0.09 / -0.08 / -0.19 / -0.23 | -0.10 | 0 of 18 |
| GFDLDEYGIS | VIYADGMRTFYADSVK | GNNAGTFDV | 1.15 / 0.62 / -0.91 / -0.40 / -0.25 / 0.54 | 0.12 | 0 of 18 |
| GFDLNEYGIS | VIYADGMRTAYADDVK | GQVAGTFDL | 0.05 / -0.15 / -0.07 / -0.24 / -0.32 / 0.12 | -0.10 | 0 of 18 |
| GFDLNEYGIS | VIYADGVRTAYIDSVK | GSNAGTFDV | -0.14 / -0.09 / -0.49 / -0.58 / -0.46 / -0.39 | -0.36 | 0 of 18 |
| GFDLNEYGIS | VIYADGSRTAYADSVK | GEVAGTFDQ | 0.00 / -0.05 / -0.32 / -0.57 / 0.63 / 0.07 | -0.04 | 0 of 18 |
| GFDLNEYGIS | VIYADGRRTAYADDVK | GGNAGTFDI | -0.62 / -0.64 / -0.95 / -0.88 / -0.79 / -0.54 | -0.74 | 0 of 18 |
| GFDLDEYGIS | VIYADGKRTFYADSVK | GNVAGTFDV | -0.53 / -0.62 / -0.72 / -0.57 / -0.82 / -0.48 | -0.62 | 0 of 18 |
| GFDLDEYGIS | VIYADGQRTAYADDVK | GEVAGTFDL | -0.19 / -0.10 / 0.04 / -0.38 / -0.03 / -0.06 | -0.12 | 0 of 18 |
| GFDLDEYGIS | VIYADGKRTAYADDVK | GNQAGTFDL | -0.10 / -0.10 / 0.01 / -0.55 / -0.19 / -0.52 | -0.24 | 0 of 18 |
| GFDLDEYGIS | VIYADGQRTAYADDVK | GEVAGTFDV | -0.32 / -0.60 / -0.86 / -0.86 / -0.55 / -0.55 | -0.62 | 0 of 18 |
| GFDLNEYGIS | VIYADGRRTAYADSVK | GNTAGTFDI | -0.41 / -0.51 / -0.57 / -0.70 / -0.49 / -0.35 | -0.50 | 1 of 18 (2.16) |
| GFDLNEYGIS | VIYADGLRTAYADDVK | GNVAGTFDT | -0.47 / -0.70 / -0.82 / -0.20 / -0.88 / -0.53 | -0.60 | 0 of 18 |
| GFDLNEYGIS | VIYADGSRTAYADSVK | GNQAGTFDI | -0.38 / -0.19 / -0.41 / -0.17 / -0.01 / 0.14 | -0.17 | 1 of 18 (0.93) |
| GFDLNEYGIS | VIYADGMRTFYADSVK | GQVAGTFDL | 0.08 / -0.67 / -0.43 / -0.79 / -0.58 / -0.37 | -0.46 | 0 of 18 |
| GFDLNEYGIS | VIYADGKRTAYADSVK | GNTAGTFDV | -0.17 / -0.17 / -0.05 / -0.83 / -0.42 / -0.38 | -0.34 | 0 of 18 |
| GFDLNEYGIS | VIYADGMRSAYADDVK | GNVAGTFDV | -0.11 / -0.31 / -0.61 / -0.31 / -0.72 / -0.37 | -0.41 | 0 of 18 |
| GFDLNEYGIS | VIYADGMRTAYVDSVK | GNVAGTFDI | nd / nd / 0.30 / nd / nd / nd | 0.30 | 1 of 18 (-0.49) |
| GFDLNEYGIS | VIYADGIRTAYADDVK | GNVAGTFDI | -0.27 / -0.15 / -0.16 / -0.41 / -0.47 / -0.17 | -0.27 | 0 of 18 |
| GFDLDEYGIS | VIYADGMRTAYSDSVK | GNVAGTFDV | -0.19 / -0.69 / -0.37 / -0.80 / -1.01 / -0.72 | -0.63 | 0 of 18 |
| GFDLNEYGIS | VIYADGMRTAYSDSVK | GQNAGTFDQ | 0.22 / 0.22 / -0.07 / 0.11 / -0.18 / 0.94 | 0.21 | 0 of 18 |
| GFDLNEYGIS | VIYADGKRTFYADSVK | GENAGTFDI | -0.33 / -0.43 / -0.07 / -0.43 / 0.47 / 0.46 | -0.06 | 0 of 18 |
| GFDLNEYGIS | VIYADGSRTAYADSVK | GNVAGTFDI | -0.98 / -0.07 / -0.27 / -0.46 / -0.87 / 0.00 | -0.44 | 0 of 18 |
| GFDLNEYGIS | VIYADGKRTAYADSVK | GGEAGTFDV | 0.14 / -0.18 / -0.38 / -0.52 / -0.58 / -0.05 | -0.26 | 1 of 18 (2.22) |
| GFDLNEYGIS | VIYADGMRKAYVDSVK | GNVAGTFDV | -0.81 / -0.51 / -0.58 / -0.72 / -0.54 / -0.47 | -0.61 | 0 of 18 |
| GFDLDEYGIS | VIYADGRRTAYADSVK | GTNAGTFDV | -0.53 / -0.63 / -1.08 / -1.23 / -0.99 / -0.88 | -0.89 | 0 of 18 |
| GFDLDEYGIS | VIYADGKRTAYADSVK | GGNAGTFDQ | -0.44 / -0.25 / -0.39 / -0.66 / -0.76 / -0.37 | -0.48 | 0 of 18 |
| GFDLEDYGIS | VIYADGMRTAYADDVK | GENAGTFDV | -0.11 / -0.19 / 0.01 / 0.10 / -0.22 / 0.41 | 0.00 | 0 of 18 |
| GFDLNEYGIS | VIYADGLRTAYVDSVK | GNVAGTFDI | -0.31 / -0.49 / -0.76 / -0.69 / -0.62 / -0.33 | -0.54 | 0 of 18 |
| GFDLNEYGIS | VIYADGRRTAYADDVK | GNVAGTFDL | -0.18 / -0.72 / -1.33 / -1.33 / -0.08 / -0.58 | -0.71 | 0 of 18 |
| GFDLDEYGIS | VIYADGKRTAYADTVK | GNVAGTFDV | -0.38 / -0.45 / -0.09 / -0.40 / -0.67 / -0.55 | -0.42 | 0 of 18 |
| GFDLNEYGIS | VIYADGVRTAYIDSVK | GNVAGTFDI | nd / nd / nd / nd / nd / nd | nd | 0 of 18 |
| GFDLNEYGIS | VIYADGMRTAYADSVK | GEQAGTFDV | -0.19 / 0.44 / -0.38 / -0.83 / -0.62 / -0.05 | -0.27 | 0 of 18 |

The 5 strongest on average among those seen in every replicate, once more:

| CDR-H1 | CDR-H2 | CDR-H3 | log10 Kd, replicates | mean, log10 nM | control signals |
|---|---|---|---|---|---|
| GFDLDEYGIS | VIYADGRRTAYADSVK | GTNAGTFDV | -0.53 / -0.63 / -1.08 / -1.23 / -0.99 / -0.88 | -0.89 | 0 of 18 |
| GFDLNEYGIS | VIYADGRRTAYADDVK | GGNAGTFDI | -0.62 / -0.64 / -0.95 / -0.88 / -0.79 / -0.54 | -0.74 | 0 of 18 |
| GFDLNEYGIS | VIYADGRRTAYADDVK | GNVAGTFDL | -0.18 / -0.72 / -1.33 / -1.33 / -0.08 / -0.58 | -0.71 | 0 of 18 |
| GFDLDEYGIS | VIYADGMRTAYSDSVK | GNVAGTFDV | -0.19 / -0.69 / -0.37 / -0.80 / -1.01 / -0.72 | -0.63 | 0 of 18 |
| GFDLDEYGIS | VIYADGSRTAYADSVK | GNQAGTFDV | -0.61 / -0.54 / -0.68 / -0.49 / -0.78 / -0.69 | -0.63 | 0 of 18 |

As a blank, each scFv also met three strains without target: over all heavy chain designs, 1% of these pairings were detected, typically at 2.08 and seldom below 0.84. For each scFv, signals with the empty controls are counted beside the result, with their mean in brackets.
The range of this assay differs from that of the first round, and the authors advise against merging the two.
The authors averaged sequences with at least three values out of six and counted those with two or fewer as poor binders.